From ChEMBL document CHEMBL3763153, “Recent Update on Human Lactate Dehydrogenase Enzyme 5 (hLDH5) Inhibitors: A Promising Approach for Cancer Chemotherapy” (J Med Chem, 2016) come the findings set out here.

By UniProt entry, the sequences of proteins in these tests, tags left out.
UniProt P07195, whole entry: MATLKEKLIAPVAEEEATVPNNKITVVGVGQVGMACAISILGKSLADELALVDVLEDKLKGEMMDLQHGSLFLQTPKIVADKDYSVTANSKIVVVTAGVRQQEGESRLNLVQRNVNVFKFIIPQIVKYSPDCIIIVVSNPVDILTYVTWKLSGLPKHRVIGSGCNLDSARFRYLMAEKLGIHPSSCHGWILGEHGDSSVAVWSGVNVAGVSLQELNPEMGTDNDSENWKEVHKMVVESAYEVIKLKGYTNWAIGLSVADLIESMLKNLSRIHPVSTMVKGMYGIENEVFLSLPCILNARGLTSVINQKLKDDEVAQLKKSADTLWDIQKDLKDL

As usually defined, the Ki is a dissociation constant, usually derived from enzyme kinetics or from competition with a known ligand.

The target of the assay is L-lactate dehydrogenase B chain (Homo sapiens, UniProt P07195).

`Cc1cc2c(C(C)C)c(O)c(O)c(C=O)c2c(O)c1-c1c(C)cc2c(C(C)C)c(O)c(O)c(C=O)c2c1O` [GOSSYPOL] came in with a Ki of 1400 nM.
